In the assay the target is T1, Endothelin receptor type B (Homo sapiens, UniProt P24530).
T1 sequence (P24530 whole entry): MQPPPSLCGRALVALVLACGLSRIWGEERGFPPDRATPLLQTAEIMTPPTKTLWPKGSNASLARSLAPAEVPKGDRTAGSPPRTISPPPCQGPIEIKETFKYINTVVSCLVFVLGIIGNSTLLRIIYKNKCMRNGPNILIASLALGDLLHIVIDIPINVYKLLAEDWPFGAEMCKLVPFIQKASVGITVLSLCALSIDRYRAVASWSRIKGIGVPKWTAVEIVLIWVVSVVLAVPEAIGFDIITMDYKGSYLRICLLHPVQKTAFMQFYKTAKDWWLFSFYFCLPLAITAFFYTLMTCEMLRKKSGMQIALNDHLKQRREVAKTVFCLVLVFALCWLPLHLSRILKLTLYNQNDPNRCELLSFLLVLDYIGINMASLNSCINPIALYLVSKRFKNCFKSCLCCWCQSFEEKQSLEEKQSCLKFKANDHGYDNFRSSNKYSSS
Kind of assay: Displacement of [125I]ET-1 from human ET-B receptor expressed in CHO cell membrane incubated for 2 hrs. The assay is classed as cell-based.

Molecules are shown by their SMILES.

Take `Cc1cc(C)cc(C(=O)N(C)[C@H](Cc2ccc(-c3ccccc3)cc2)C(=O)N[C@@H](Cc2c[nH]c3ccccc23)C(=O)O)c1`: the IC50 was 1.3 nM.

Source of the values: ChEMBL document CHEMBL4431311, “Endothelin-Receptor Antagonists beyond Pulmonary Arterial Hypertension: Cancer and Fibrosis” (J Med Chem, 2016).
